Test [1] concerns marine diatom Phaeodactylum tricornutum. The note with it: inhibitor applied to exponentially growing cells, continuous light, F/2 media.
Test [2] has the same test system. The note with it: treated vs untreated cells.

For `Nc1nc(OCC2CCCCC2)c2nc[nH]c2n1` [NU 2058, 6-(Cyclohexylmethoxy)-9H-purin-2-amine], the specific growth rate entry in test [1] is listed as “dose-dependent decrease”. For the same compound, the “nitrate assimilation (nitrate reductase activity), of the activity of untreated cells” value in test [2] is given as “about 35%”.

The values above are taken from patent publication US20140303386A1, “COMPOSITIONS AND METHODS FOR ENHANCING LIPID PRODUCTION IN […] INDUCTION OF CELL CYCLE ARREST” (RUTGERS, THE STATE UNIVERSITY OF NEW JERSEY, priority 2011, published 2014).
